## Yeast mating assay B: variants of the scFv Ab-14

All variants were tested on one target, the spike HR2 peptide PDVDLGDISGINAS (SARS-CoV-2).

Each scFv is VH, a (GGGGS)3 linker, VL, as in the parent Ab-14, and differs from it in the CDRs of the heavy chain only.
VH: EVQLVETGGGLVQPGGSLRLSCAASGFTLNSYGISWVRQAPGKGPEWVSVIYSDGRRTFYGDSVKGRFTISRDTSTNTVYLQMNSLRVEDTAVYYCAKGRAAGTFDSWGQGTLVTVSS
VL: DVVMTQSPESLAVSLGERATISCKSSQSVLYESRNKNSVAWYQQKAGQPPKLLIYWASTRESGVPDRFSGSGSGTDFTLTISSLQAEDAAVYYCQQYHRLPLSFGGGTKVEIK

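Phage display of a naive human antibody library on the peptide gave the parent. This is the validation round: designs drawn from the data on random variants, tested in the same kind of assay. Group labels follow the data file (Ctrl: baseline library sampled from a position-specific scoring matrix, with some repeated check sequences; Rand: our label for a block that the file lists under HC and that is probably the random mutants of the ten best first-round binders; En: ensemble of fine-tuned language models; GP: Gaussian process model; GPLM: also part of the Gaussian process libraries; HC: hill climbing; Gen: genetic algorithm; Gibbs: Gibbs sampling; a sequence that several methods proposed may carry one label only). The scFvs were displayed on barcoded MATa yeast, the peptide on MATalpha yeast. The frequency of each diploid, read from paired DNA barcodes, reflects how well the two displayed proteins bind. A regression on co-assayed BCL2-family reference pairs converts the normalised counts of each replicate to an apparent Kd. Mating was done six times.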

Variants are written as CDR1, CDR2 and CDR3 of the heavy chain (limits as in the source). Parent: GFTLNSYGIS, VIYSDGRRTFYGDSVK, GRAAGTFDS.
Numbers give log10(Kd / nM), so 0 is 1 nM and 3 is 1 µM. Smaller is tighter.
A mean of the replicates is given; it leaves out those without a signal.
Where no diploid with the target was found in any replicate, the entry reads "not detected": below detection, most likely a poor binder, though not proof of it.
The range of this assay differs from that of the first round, and the authors advise against merging the two.
In the paper, a design with two or fewer of six values counts as a poor binder.
Three control strains display no target. For all heavy chain designs, 1% of the pairings with them gave a signal, with a median of 2.08 and one signal in twenty below 0.84, so weak values seen in few replicates may be background. Also given: how often the same scFv was detected with the empty control strains.
Some sequences occur more than once in the pool; their replicates are pooled.

CDR-H1 | CDR-H2 | CDR-H3 | group | log10 Kd (nM), mean | replicates with signal | control signals
GFGLSEYGIS | VIYADGMRTSYDDSVK | GALAGTFDE | En_Gibbs | -0.32 | 6 of 6 | 0 of 18
GFTLNEYGIM | VIYSDGRRTFYGDSVK | GRAAGTFDS | Ctrl | not detected | 0 of 6 | 0 of 18
GQSLNEYGIS | VIYADGHRKMYANDVK | GKIGAIFED | En_Gibbs | not detected | 0 of 6 | 0 of 18
HFQLNDYGIS | VIYSDGRRTFYGDSVK | GRQAGTFDS | GP_Gibbs | 0.75 | 6 of 6 | 0 of 18
GFTLNSYGIS | VIYSDGIRTFYEDSVK | GRAAGTFDR | Ctrl | 1.28 | 6 of 6 | 0 of 18
GFELNSYGIS | VIYSDGKRTFYSDSVK | GKAAGTFDS | GP_Gen | -0.03 | 6 of 6 | 0 of 18
GFPLNEYGIS | VIYADGRRTFYGDSVK | GSAAGTFDS | GP_HC | -0.40 | 6 of 6 | 0 of 18
GFDLNEYGIS | VIYADGMRTAYSDKVK | GNTAGTFDV | En_Gen | -0.24 | 6 of 6 | 0 of 18
GFDLNEYGIS | VIYADGSRTVYADSVK | GQNAGTFDV | En_Gen | -0.79 | 6 of 6 | 0 of 18
GFTLNSYGIS | VIYSDGRRTFYSDSVK | GNEAGTFDT | GP_Gen | 0.11 | 6 of 6 | 0 of 18
GFTLNSYGIS | VIYSDGRRTFYGDSVK | GQAAGTDDS | Ctrl | not detected | 0 of 6 | 0 of 18
GFTLNDYGIS | VIYSDGRRTQYINSVK | GRYAGTFDS | Rand | 1.48 | 1 of 6 | 0 of 18
GFELQEYGIS | VIYADGIRTNYSQNVK | GTLAGTFTQ | En_Gibbs | 1.23 | 2 of 6 | 0 of 18
GFTLNEYGIS | VIYSDGRRTFYTDSVK | GQFAGTFDS | GPLM_HC | 0.90 | 6 of 6 | 3 of 18
GFTLNSYGIS | VIYSDGRRTFYVDSVK | GLLAGTFDS | GP_HC | 1.04 | 5 of 6 | 0 of 18
GNELDSYGIS | VIYSDGRRTFYGDSVK | GRAAGTFDS | Ctrl | 2.02 | 2 of 6 | 0 of 18
GINLEEYGVS | VIYADGRRTAYTNSVK | GGNSVTTGV | En_Gibbs | 0.77 | 6 of 6 | 0 of 18
YFSLNEYGIS | VIYSDGKRTFYGDSVK | GRTAGTFDS | GP_Gibbs | 1.36 | 2 of 6 | 0 of 18
GFTLNDYGIS | VIYSDGYRTGYLDSVK | GRAAGTFIS | Ctrl | not detected | 0 of 6 | 0 of 18
GFTLDSMGIS | VIYSDGRRTFYGDRVK | GRAAGTALS | Rand | not detected | 0 of 6 | 0 of 18
GFTLDEYGIS | VIYSDGRRTFYSDSVK | GRAAGTFDM | Ctrl | 1.79 | 1 of 6 | 0 of 18
GFNLDEEGIH | VIYADGKRTAYQGSVK | GQNVGNFNV | En_Gibbs | not detected | 0 of 6 | 0 of 18
GMDLNEYGIS | VIYADGQRRAYAANFK | GVNIDGFDA | En_Gibbs | not detected | 0 of 6 | 0 of 18
GFSLNSYGIS | VIYSDGRRTFYGDQVK | GMTAGTFDS | GP_Gen | -0.58 | 6 of 6 | 0 of 18
GADINEYGIS | VIYADGNRIAYQDQVK | GNLAGSFDI | En_Gibbs | 1.68 | 1 of 6 | 0 of 18
GFVLNSYGIS | VIYSDGRRTFYADSVK | GNVAGTFDS | GPLM_Gibbs | 0.45 | 6 of 6 | 1 of 18
GFTLNDYGIS | VIYSDGRRTMYTDSVK | GRCAGTFDS | GP_HC | not detected | 0 of 6 | 0 of 18
GFDFNEYGIS | VIYADGKRTAYADKVK | GGKDAFTDI | En_Gibbs | not detected | 0 of 6 | 2 of 18
GFTLNSYGIS | VIYADGRRTFYGDSVK | GRVAGTFWI | GP_HC | not detected | 0 of 6 | 0 of 18
GFDLNSYGIS | VIYSDGRRTFYIDSVK | GRAAGTFWM | GP_HC | not detected | 0 of 6 | 0 of 18
GFTLNSYGIS | VIYSDGRRTFYADAVK | GRAAGTFDS | Ctrl | 0.92 | 4 of 6 | 0 of 18
GFTLNEYGIS | VIYSDGRRTFYGDSVK | GRQAGTFDF | GP_HC | 0.67 | 6 of 6 | 0 of 18
GFDLNEYGIS | VIYADGVRKAYADSVK | GETAGTFDV | En_Gen | -0.51 | 6 of 6 | 0 of 18
GFDLNEYGIS | VIYADGRRTFYTDSVK | GANAGTFDA | En_HC | -0.60 | 6 of 6 | 0 of 18
GFDLNEYGIS | VIYADGRRTAYADSVK | GNIAGTFDV | En_Gen | -0.44 | 6 of 6 | 1 of 18
GFDLNSYGIS | VIYSDGRRTFYKDSVK | GWAAGTFDS | GPLM_Gibbs | 1.40 | 6 of 6 | 0 of 18
GFTLDSYGIT | VIYSDNRRTFYGDSVK | GRAAGTALS | Rand | not detected | 0 of 6 | 0 of 18
GFDLNEYGIS | VIYADGRRTFYTDSVK | GAGAGTFDQ | En_HC | -0.21 | 6 of 6 | 0 of 18
GFDLDEYGIS | VIYADGVRTAYVDSVK | GNVAGTFDL | En_Gen | -0.51 | 6 of 6 | 0 of 18
GFTLNSYGIS | VIYSDGRRTFYDDSVK | GQLAGTFDV | GPLM_HC | 0.69 | 6 of 6 | 0 of 18
GFDLNEYGIS | VIYADGRRTFYLDSVK | GQIAGTFDQ | En_HC | -0.26 | 6 of 6 | 0 of 18
GFWLNYYGYS | VIYSDGRRTFYLDSVK | GRAAGTFDS | Ctrl | not detected | 0 of 6 | 0 of 18
GFTLNSYGIS | VIYSDGRRTFYGDSVK | GRAAGTSLS | Ctrl | not detected | 0 of 6 | 0 of 18
GFTLNKYGIS | VIYSDGRRTFYGDSVK | GRAAVLFDS | Ctrl | not detected | 0 of 6 | 0 of 18
GFELNEYGIS | VIYSDGRRTFYGDSVK | GRNAGTFDS | GPLM_Gen | 0.18 | 6 of 6 | 0 of 18
GKNLEEYGIS | VIYADGMRTAYKESVK | GQVAGIGKF | En_Gibbs | not detected | 0 of 6 | 0 of 18
GFDLNEYGIS | VIYADGQRTAYADSVK | GKAAGTFDQ | En_HC | -0.80 | 6 of 6 | 0 of 18
GFTLNSYGIS | VIYSDGRRTFYGDSVK | HRNCGTFDS | Ctrl | not detected | 0 of 6 | 0 of 18
GFTLNSYGIS | VIYADGRRTFGGDSVK | GRAAGKNKS | Rand | not detected | 0 of 6 | 0 of 18
GFNLNTYGIS | VIYSDGRRTFYGDSVK | GREAGTFDS | GP_Gen | -0.12 | 6 of 6 | 0 of 18
GFDLNEYGIS | VIYADGRRTFYADSVK | GKNAGTFTV | En_HC | not detected | 0 of 6 | 0 of 18
GFTLDSYGIS | VIYSDGRRTFYDDSVK | GWLAGTFDS | GP_HC | 0.91 | 6 of 6 | 0 of 18
GFTLNSYGIS | VIYSDGRRTFYGDSVK | HRAVGTFHS | Ctrl | not detected | 0 of 6 | 0 of 18
GFTLNDYGIS | VIYSDGRRTFYHDSVK | GKAAGTFDS | GP_HC | 0.75 | 4 of 6 | 0 of 18
GFDLDEYGIS | VIYADGKRTAYTDSVK | GGNAGTFDV | En_Gen | -0.27 | 6 of 6 | 0 of 18
GFSLNSYGIS | VIYSDGRRTFYADQVK | GEAAGTFDS | GPLM_Gen | 0.43 | 6 of 6 | 0 of 18
GFELNSYGIS | VIYSDGRRTFYQDSVK | GREAGTFDS | GPLM_Gibbs | 0.43 | 6 of 6 | 0 of 18
GFDLNEYGIS | VIYADGVRTAYADDVK | GNNAGTFDV | En_Gen | 0.64 | 6 of 6 | 0 of 18
GFTLNDYGIS | VIYADGRRTFYGDSVK | GKAAGTFDS | Ctrl+GP_HC | -0.38 | 12 of 12 | 0 of 36
GFNLNDYGIS | VIYSDGKRTFYGDSVK | GREAATFDS | Ctrl | not detected | 0 of 6 | 0 of 18
GFDLDEYGIS | VIYADGVRTAYADDVK | GNVAGTFDL | En_Gen | -0.61 | 6 of 6 | 0 of 18
GFDLNEYGIS | VIYADGKRTAYQDSVK | GNNAGTFDV | En_Gen | -0.22 | 6 of 6 | 0 of 18
GDSLDEMGIS | VIYADGQRSFYADSVK | GEHDGLFFQ | En_Gibbs | not detected | 0 of 6 | 0 of 18
LTTLNSYGIS | VIYSDGRRTFYGDSVK | GRQAGFFMS | Ctrl | not detected | 0 of 6 | 0 of 18
GFTLNSYGIS | VIYSDGFRVFYGDSVK | GRAAGTFDS | Ctrl | not detected | 0 of 6 | 0 of 18
GFPLNEYGIS | VIYSDGRRTFYGDSVK | GRTAGTFDS | GPLM_Gen | 0.38 | 6 of 6 | 0 of 18

4 of these entries, quoted again:

| CDR-H1 | CDR-H2 | CDR-H3 | group | log10 Kd (nM), mean | replicates with signal | control signals |
|---|---|---|---|---|---|---|
| GFTLNSYGIS | VIYSDGRRTFYADAVK | GRAAGTFDS | Ctrl | 0.92 | 4 of 6 | 0 of 18 |
| GFTLNSYGIS | VIYSDGRRTFYVDSVK | GLLAGTFDS | GP_HC | 1.04 | 5 of 6 | 0 of 18 |
| GFVLNSYGIS | VIYSDGRRTFYADSVK | GNVAGTFDS | GPLM_Gibbs | 0.45 | 6 of 6 | 1 of 18 |
| GDSLDEMGIS | VIYADGQRSFYADSVK | GEHDGLFFQ | En_Gibbs | not detected | 0 of 6 | 0 of 18 |

Source: Li et al. 2023 (doi:10.1038/s41467-023-39022-2), MIT Lincoln Laboratory and A-Alpha Bio; data file from the FLAb repository.